The values below are quoted from earlier work in patent US20200277568A1, “Small Molecule-Induced Method for Directly Reprogramming Human Fibroblasts into Liver Cells” (Transcend Cytotherapy Co.,Ltd, priority 2017, published 2020).

Amino acid sequences for entries named in this document (tags omitted). A change or cut given only in a name is not applied to a line headed by its entry.
UniProt Q96KQ7: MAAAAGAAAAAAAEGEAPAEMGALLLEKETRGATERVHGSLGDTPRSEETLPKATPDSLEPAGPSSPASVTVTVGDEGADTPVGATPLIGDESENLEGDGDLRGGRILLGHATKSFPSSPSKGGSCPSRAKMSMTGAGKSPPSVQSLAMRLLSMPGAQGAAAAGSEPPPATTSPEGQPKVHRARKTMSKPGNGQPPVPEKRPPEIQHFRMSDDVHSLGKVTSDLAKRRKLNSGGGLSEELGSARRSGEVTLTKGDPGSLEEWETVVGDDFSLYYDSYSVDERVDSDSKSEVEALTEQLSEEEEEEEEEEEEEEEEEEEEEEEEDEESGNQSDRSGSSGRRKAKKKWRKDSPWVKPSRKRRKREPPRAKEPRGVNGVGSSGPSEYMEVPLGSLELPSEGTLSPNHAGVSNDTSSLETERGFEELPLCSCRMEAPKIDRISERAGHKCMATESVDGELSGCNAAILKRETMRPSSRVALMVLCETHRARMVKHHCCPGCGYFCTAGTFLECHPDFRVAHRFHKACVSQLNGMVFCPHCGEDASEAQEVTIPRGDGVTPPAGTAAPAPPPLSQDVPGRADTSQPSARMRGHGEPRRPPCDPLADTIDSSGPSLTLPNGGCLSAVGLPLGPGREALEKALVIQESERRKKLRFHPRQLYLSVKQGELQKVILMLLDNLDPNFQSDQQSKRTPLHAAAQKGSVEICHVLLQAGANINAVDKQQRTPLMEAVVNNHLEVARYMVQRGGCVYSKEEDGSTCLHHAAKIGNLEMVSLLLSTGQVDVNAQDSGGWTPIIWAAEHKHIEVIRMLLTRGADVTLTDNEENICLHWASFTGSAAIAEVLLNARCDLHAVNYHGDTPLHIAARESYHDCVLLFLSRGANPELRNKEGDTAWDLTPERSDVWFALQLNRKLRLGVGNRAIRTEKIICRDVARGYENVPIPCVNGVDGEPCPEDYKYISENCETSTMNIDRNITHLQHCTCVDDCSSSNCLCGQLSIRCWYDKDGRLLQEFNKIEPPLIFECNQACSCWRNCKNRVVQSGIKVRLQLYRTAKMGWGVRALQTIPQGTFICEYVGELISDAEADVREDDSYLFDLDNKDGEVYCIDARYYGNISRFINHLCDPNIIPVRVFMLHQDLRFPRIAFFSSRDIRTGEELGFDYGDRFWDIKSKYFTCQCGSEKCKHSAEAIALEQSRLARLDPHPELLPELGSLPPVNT

In this data set the target is G9a histone methyltransferase (Homo sapiens, UniProt Q96KQ7).

On to `COc1cc2c(NC3CCN(C)CC3)nc(N3CCCN(C)CC3)nc2cc1OCCCN(C)C` [UNC0224], for which the half-inhibitory concentration (IC50) (commonly the concentration that inhibits the measured activity by half) was 15 nM.
